Consider 56 molecules from patent US20060160798A1, “Viral polymerase inhibitors” (Boehringer Ingelheim (Canada) Ltd., priority 2001, published 2006).

Usually IC50 stands for the concentration that gives 50% inhibition. A high value points to a need for much substance.

Molecules are shown by their SMILES.

One assay addresses hepatitis C virus RNA dependant polymerase (NS5B) (Hepatitis C virus genotype 1b, UniProt P26663). The assay is described as follows: biochemical. Conditions: IC50, HCV NS5B polymerase, 10 nM enzyme, 1.5 hours at room temperature.
For the molecule `Cn1c(-c2cccc([N+](=O)[O-])c2)c(C2CCCCC2)c2ccc(C(=O)NC(C)(C)C(=O)Nc3ccc(/C=C/C(=O)O)cc3)cc21` [Entry 2102], the IC50 is under 500 nM.

Consider `Cn1c(-c2ccccn2)c(C2CCCCC2)c2ccc(C(=O)NC(C)(C)C(=O)Nc3ccc(-c4ccc(C(=O)O)o4)cc3)cc21` [Entry 2070], for which the IC50 was under 500 nM.

Turning to `Cn1c(C(=O)O)cc2cc(NC(=O)C3(NC(=O)c4ccc5c(C6CCCCC6)c(-c6ccoc6)n(Cc6cccc(C(=O)O)c6)c5c4)CCNCC3)ccc21` [Entry 2045], the half-inhibitory concentration (IC50) is under 500 nM.

Consider `Cc1nc([C@H](Cc2c[nH]c3ccc(O)cc23)NC(=O)c2ccc3c(C4CCCC4)c(-c4ccoc4)sc3c2)cs1` [Entry 1024], for which the IC50 was under 500 nM.

Molecule `Cn1c(-c2ccccn2)c(C2CCCCC2)c2ccc(C(=O)NC3(C(=O)Nc4ccc(-c5cnc(N)nc5)cc4)CCC3)cc21` [Entry 2113] came in with an IC50 of 500 to 1000 nM.

In the case of `Cn1c(-c2ccoc2)c(C2CCCCC2)c2ccc(C(=O)N[C@@]3(C(=O)Nc4ccc(-c5cnc(N)nc5)cc4)CCNC3)cc21` [Entry 1031], the IC50 was under 500 nM.

Molecule `CN1CCC(NC(=O)c2ccc3c(C4CCCC4)c(-c4ccccn4)n(C)c3c2)(c2nc3cc(C=CC(=O)O)ccc3[nH]2)C1` (centres unmarked) [Entry 1028] came in with an IC50 of under 500 nM.

`Cn1c(-c2ccccn2)c(C2CCCC2)c2ccc(C(=O)NC(C)(C)/C=C/c3ccc(/C=C/C(=O)O)cc3)cc21` [Entry 1016]: the IC50 was under 500 nM.

`CN1CC[C@](NC(=O)c2ccc3c(C4CCCCC4)c(-c4ccccn4)n(C)c3c2)(C(=O)Nc2ccc(/C=C/C(=O)O)cc2)C1` [Entry 2118]: the IC50 is under 500 nM.

Molecule `Cn1c(-c2ccccn2)c(C2=CCCC2)c2ccc(C(=O)NC3(C(=O)Nc4ccc(/C=C/C(=O)O)cc4)CCC3)cc21` [Entry 1033] showed an IC50 of 500 to 1000 nM.

`Cn1c(-c2ccccc2)c(C2CCCCC2)c2ccc(C(=O)NC3(C(=O)Nc4ccc(/C=C/C(=O)O)cc4)CCCC3)cc21` [Entry 4001] yielded an IC50 of 500 to 1000 nM.

`NCC[C@H](NC(=O)c1ccc2c(C3CCCCC3)c(-c3ccoc3)[nH]c2c1)C(=O)Nc1ccc(/C=C/C(=O)O)cc1` [Entry 2064] gave an IC50 of under 500 nM.

Regarding `CC(C)(NC(=O)c1ccc2c(C3CCCC3)c(-c3ccccn3)sc2c1)C(=O)Nc1ccc(/C=C/C(=O)O)cc1` [Entry 8002], the IC50 was 1000 to 10000 nM.

As to `O=C(NC1(C(=O)Nc2ccc(-c3ccc(C(=O)O)o3)cc2)CCCC1)c1ccc2c(C3CCCCC3)c(-c3ccoc3)[nH]c2c1` [Entry 2048], the IC50 was under 500 nM.

In the case of `CC(C)(NC(=O)c1ccc2c(C3CCCCC3)c(-c3ccccc3)[nH]c2c1)C(=O)Nc1ccc(/C=C/C(=O)O)cc1` [Entry 2058], the IC50 was under 500 nM.

`CC(=O)N1CCC(NC(=O)c2ccc3c(C4CCCCC4)c(-c4ccoc4)[nH]c3c2)(C(=O)Nc2ccc(/C=C/C(=O)O)cc2)CC1` [Entry 2055] displayed an IC50 of under 500 nM.

For `O=C(O)/C=C/c1ccc(NC(=O)C2(NC(=O)c3ccc4c(C5CCCCC5)c(-c5ccoc5)[nH]c4c3)CCCC2)cc1` [Entry 2036], the IC50 was under 500 nM.

For the molecule `CCn1c(C(=O)O)cc2cc(NC(=O)[C@@H](C)NC(=O)c3ccc4c(C5CCCCC5)c(-c5ccoc5)[nH]c4c3)ccc21` [Entry 2015], the IC50 was in the range of 500 to 1000 nM.

On to `CNC(=O)C(=O)Nc1ccc(NC(=O)C(C)(C)NC(=O)c2ccc3c(C4CCCCC4)c(-c4ccccn4)n(C)c3c2)cc1` [Entry 2076], for which the IC50 was under 500 nM.

The assay is the same for the next values; noted with them: IC50, Table 6.
Consider `Cn1c(-c2cocn2)c(C2CCCC2)c2ccc(C(=O)NC3(C(=O)Nc4ccc(/C=C/C(=O)O)cc4)CCCC3)cc21` [Entry 6098], for which the IC50 was under 500 nM.

`Cn1c(-c2csc(NCC3CCCO3)n2)c(C2CCCC2)c2ccc(C(=O)NC(C)(C)C(=O)Nc3ccc(/C=C/C(=O)O)cc3)cc21` (centres unmarked) [Entry 6021] returned an IC50 of under 500 nM.

As for `COc1cccc(-c2c(C3CCCC3)c3ccc(C(=O)NC4(C(=O)Nc5ccc(/C=C/C(=O)O)cc5)CCCC4)cc3n2C)n1` [Entry 6044], the IC50 was under 500 nM.

Consider `COc1cccc(-c2c(C3CCCC3)c3ccc(C(=O)NC4(C(=O)Nc5ccc(/C=C/C(=O)O)cc5)CCC4)cc3n2C)n1` [Entry 6043], for which the IC50 is under 500 nM.

Consider `Cn1c(-c2ccccn2)c(C2CCCC2)c2ccc(C(=O)NC3(C(=O)Nc4ccc(/C=C/C(=O)O)cc4)CCC3)cc21` [Entry 6064], for which the IC50 was under 500 nM.

The molecule `Cn1cc(C2CCCC2)c2ccc(C(=O)NC3(C(=O)Nc4ccc(/C=C/C(=O)O)cc4)CCC3)cc21` [Entry 6119] had an IC50 of 1000 to 10000 nM.

As for `Cn1c(-c2csc(NC(=O)CC(C)(C)C)n2)c(C2CCCC2)c2ccc(C(=O)NC3(C(=O)Nc4ccc(/C=C/C(=O)O)cc4)CCCC3)cc21` [Entry 6095], the IC50 is under 500 nM.

In the case of `CCNc1nc(-c2c(C3CCCC3)c3ccc(C(=O)NC4(C(=O)Nc5ccc(/C=C/C(=O)O)cc5)CCCC4)cc3n2C)cs1` [Entry 6088], the IC50 was under 500 nM.

`COCCNc1nc(-c2c(C3CCCC3)c3ccc(C(=O)NC4(C(=O)Nc5ccc(/C=C/C(=O)O)cc5)CCC4)cc3n2C)cs1` [Entry 6077] registered an IC50 of under 500 nM.

Consider `CN1CCC(NC(=O)c2ccc3c(C4CCCC4)c(-c4ccc(Cl)cn4)n(C)c3c2)(C(=O)Nc2ccc(/C=C/C(=O)O)cc2)CC1` [Entry 6050], for which the IC50 was under 500 nM.

In turn, `Cn1c(-c2ncccn2)c(C2CCCC2)c2ccc(C(=O)NC3(C(=O)Nc4ccc(/C=C/C(=O)O)cc4)CCC3)cc21` [Entry 6111] showed an IC50 of under 500 nM.

Turning to `Cn1c(-c2csc(NC(=O)CC(C)(C)C)n2)c(C2CCCC2)c2ccc(C(=O)NC3(C(=O)Nc4ccc(/C=C/C(=O)O)cc4)CCC3)cc21` [Entry 6080], the 50% inhibitory concentration (IC50) was under 500 nM.

`C=Cc1c(C2CCCC2)c2ccc(C(=O)NC3(C(=O)Nc4ccc(/C=C/C(=O)O)cc4)CCCC3)cc2n1C` [Entry 6099] had a half-inhibitory concentration (IC50) of under 500 nM.

Regarding `CCC(CC)Nc1nc(-c2c(C3CCCC3)c3ccc(C(=O)NC(C)(C)C(=O)Nc4ccc(/C=C/C(=O)O)cc4)cc3n2C)cs1` [Entry 6031], the IC50 is 500 to 1000 nM.

`CC(=O)N1CCC(NC(=O)c2ccc3c(C4CCCC4)c(-c4ccccn4)n(C)c3c2)(C(=O)Nc2ccc(/C=C/C(=O)O)cc2)CC1` [Entry 6001] came in with an IC50 of under 500 nM.

For the molecule `Cn1c(-c2csc(Nc3ccncc3)n2)c(C2CCCC2)c2ccc(C(=O)NC(C)(C)C(=O)Nc3ccc(/C=C/C(=O)O)cc3)cc21` [Entry 6022], the IC50 was in the range of 500 to 1000 nM.

With `Cn1c(-c2cscn2)c(C2CCCC2)c2ccc(C(=O)NC3(C(=O)Nc4ccc(/C=C/C(=O)O)cc4)CCCC3)cc21` [Entry 6085], the IC50 is under 500 nM.

As to `CCCNc1nc(-c2c(C3CCCC3)c3ccc(C(=O)NC4(C(=O)Nc5ccc(/C=C/C(=O)O)cc5)CCC4)cc3n2C)cs1` [Entry 6076], the IC50 is under 500 nM.

As for `Cn1c(C(=O)Nc2ccccc2)c(C2CCCC2)c2ccc(C(=O)NC(C)(C)C(=O)Nc3ccc(/C=C/C(=O)O)cc3)cc21` [Entry 6112], the IC50 lay in the range of 500 to 1000 nM.

`CN1CCC(NC(=O)c2ccc3c(C4CCCC4)c(-c4cccc(N)c4)n(C)c3c2)(C(=O)Nc2ccc(/C=C/C(=O)O)cc2)CC1` [Entry 6102] showed an IC50 of under 500 nM.

As for `CN(C)CCNc1nc(-c2c(C3CCCC3)c3ccc(C(=O)NC4(C(=O)Nc5ccc(/C=C/C(=O)O)cc5)CCC4)cc3n2C)cs1` [Entry 6082], the 50% inhibitory concentration (IC50) is under 500 nM.

The assay is the same for the next values; noted with them: IC50, Table 7.
The molecule `Cn1c(-c2ccccn2)c(C2CCCC2)c2ccc(C(=O)NC3(C(=O)Nc4ccc(-c5ccc(C(=O)O)o5)cc4)CCC3)cc21` [Entry 7009] yielded an IC50 of under 500 nM.

With `Cn1c(C(=O)O)cc2cc(NC(=O)C3(NC(=O)c4ccc5c(C6CCCC6)c(-c6cccc(N)c6)n(C)c5c4)CCC3)ccc21` [Entry 7015], the IC50 is under 500 nM.

For the molecule `C/C(=C\c1ccc(NC(=O)C2(NC(=O)c3ccc4c(C5CCCC5)c(-c5nccs5)n(C)c4c3)CCC2)cc1)C(=O)O` [Entry 7049], the IC50 is under 500 nM.

Consider `CCc1ccnc(-c2c(C3CCCC3)c3ccc(C(=O)NC4(C(=O)Nc5ccc(/C=C(\C)C(=O)O)cc5)CCC4)cc3n2C)c1` [Entry 7044], for which the IC50 lay within 1000 to 10000 nM.

`Cc1ccc(-c2c(C3CCCC3)c3ccc(C(=O)NC4(C(=O)Nc5ccc(-c6ccc(C(=O)O)o6)cc5)CCC4)cc3n2C)cn1` [Entry 7032] yielded a half-maximal inhibitory concentration (IC50) of under 500 nM.

With `C/C(=C\c1ccc(NC(=O)C2(NC(=O)c3ccc4c(C5CCCC5)c(-c5cccc(N)n5)n(C)c4c3)CCC2)cc1)C(=O)O` [Entry 7026], the IC50 is under 500 nM.

Consider `Cn1c(-c2ccsc2)c(C2CCCC2)c2ccc(C(=O)NC3(C(=O)Nc4ccc(-c5ccc(C(=O)O)o5)cc4)CCC3)cc21` [Entry 7019], for which the IC50 is under 500 nM.

Take `CCc1ccnc(-c2c(C3CCCC3)c3ccc(C(=O)NC4(C(=O)Nc5ccc(-c6ccc(C(=O)O)o6)cc5)CCC4)cc3n2C)c1` [Entry 7042]: the IC50 is 1000 to 10000 nM.

`Cn1c(-c2ccccn2)c(C2CCCC2)c2ccc(C(=O)NC3(C(=O)Nc4ccc(-c5ccc(C(=O)O)o5)cc4)CCCC3)cc21` [Entry 7010]: the IC50 is under 500 nM.

`CN1CC[C@@](NC(=O)c2ccc3c(C4CCCC4)c(-c4ccccn4)n(C)c3c2)(C(=O)Nc2ccc(/C=C/C(=O)O)cc2)C1` [Entry 7058] had an IC50 of under 500 nM.

Regarding `Cc1ccc(-c2c(C3CCCC3)c3ccc(C(=O)NC4(C(=O)Nc5ccc6c(c5)cc(C(=O)O)n6C)CCC4)cc3n2C)nc1` [Entry 7031], the IC50 is under 500 nM.

Molecule `Cn1c(-c2ccccn2)c(C2CCCC2)c2ccc(C(=O)NC3(C(=O)Nc4ccc(-c5cncnc5)cc4)CCC3)cc21` [Entry 7055] came in with an IC50 of 500 to 1000 nM.

For `Cn1c(-c2cnccn2)c(C2CCCC2)c2ccc(C(=O)NC3(C(=O)Nc4ccc(-c5ccc(C(=O)O)o5)cc4)CCC3)cc21` [Entry 7036], the IC50 is under 500 nM.

On to `Cn1c(-c2ccc(N)cc2)c(C2CCCC2)c2ccc(C(=O)NC3(C(=O)Nc4ccc(-c5ccc(C(=O)O)o5)cc4)CCCC3)cc21` [Entry 7017], for which the IC50 is under 500 nM.

`Cn1c(-c2ccccn2)c(C2CCCC2)c2ccc(C(=O)NC3(C(=O)Nc4nc5ccc(C(=O)O)cc5s4)CCC3)cc21` [Entry 7082]: the IC50 is under 500 nM.

`Cn1c(-c2ccccn2)c(C2CCCC2)c2ccc(C(=O)NC(C)(C)C(=O)Nc3nc4cc(C(=O)O)ccc4n3C3CCCCC3)cc21` [Entry 7056] registered an IC50 of 1000 to 10000 nM.
